Tests used:
[1] = substrate: C[C@@H](O)[C@H]1C(=O)N2C(C(=O)O)=C(S[C@@H]3CN[C@H](C(=O)N(C)C)C3)[C@H](C)[C@H]12; assay: Ratio of Kcat to Km for Pseudomonas maltophilia ULA-511 beta-Lactamase L-1; conditions: Stenotrophomonas maltophilia
[2] = substrate: C[C@@H](O)[C@H]1C(=O)N2C(C(=O)O)=C(S[C@@H]3CN[C@H](C(=O)N(C)C)C3)[C@H](C)[C@H]12; assay: Ratio of Kcat to Km for Chryseobacterium meningosepticum beta-Lactamase GOB-1; conditions: Elizabethkingia meningoseptica
[3] = substrate: C[C@@H](O)[C@H]1C(=O)N2C(C(=O)O)=C(S[C@@H]3CN[C@H](C(=O)N(C)C)C3)[C@H](C)[C@H]12; assay: Ratio of Kcat to Km for Caulobacter crescentus beta-Lactamase CAU-1; conditions: Caulobacter vibrioides
[4] = substrate: C[C@@H](O)[C@H]1C(=O)N2C(C(=O)O)=C(S[C@@H]3CN[C@H](C(=O)N(C)C)C3)[C@H](C)[C@H]12; assay: Ratio of Kcat to Km for Janthinobacterium lividum THIN-B

B1: Beta-lactamase L1 (Stenotrophomonas maltophilia), P52700 (protein)
chain: MRSTLLAFALAVALPAAHTSAAEVPLPQLRAYTVDASWLQPMAPLQIADHTWQIGTEDLTALLVQTPDGAVLLDGGMPQMASHLLDNMKARGVTPRDLRLILLSHAHADHAGPVAELKRRTGAKVAANAESAVLLARGGSDDLHFGDGITYPPANADRIVMDGEVITVGGIVFTAHFMAGHTPGSTAWTWTDTRNGKPVRIAYADSLSAPGYQLQGNPRYPHLIEDYRRSFATVRALPCDVLLTPHPGASNWDYAAGARAGAKALTCKAYADAAEQKFDGQLAKETAGAR
[1]
  kcat/Km: 4.5 ×10⁶ /M/s

B2: GOB-1 metallo-beta-lactamase (Elizabethkingia meningoseptica), A4GRB7 (protein)
chain: MRNFATLFFMFICLGLNAQVVKEPENMPKEWNQTYEPFRIAGNLYYVGTYDLASYLIVTDKGNILINTGTAESLPIIKANIQKLGFNYKDIKILLLTQAHYDHTGALQDLKTETGAKFYADKADADVLRTGGKSDYEMGKYGVTFKPVTPDKTLKDQDKITLGNTILTLLHHPGHTKGSCSFIFETKDEKRKYRVLIANMPSVIVDKKFSEVTAYPNIQSDYAYTFKAMKNLDFDLWVASHASQFDLHEKRKEGDPYNPQLFMDKQSYFQNLNDLEKSYLDKIKKDSQDK
[2]
  kcat/Km: 5.3 ×10⁶ /M/s

B3: Metallo-beta-lactamase (Caulobacter vibrioides), Q8KKG1 (protein)
chain: MKRLILAAAASLLALASAAHADDMPANWTKPTKPYRVVGNIYYVGTEGISSWLITSSEGHVVLDGGPNAETGKLVERNITALGFQLADVKILINTHAHYDHAGGLAQLKADTGAKLWISRDDAPAMAAGHHIGDNIYGPTPMPAAKPDRSFGDQTKLKLGEIAMVAHLTPGHTIGCTSWTTAVVEKGRPLTVTFPCSLSVAGNVLVGNKTHRTIVADYRASFAKLRAIPTDVMLPAHEEQGNLLAKRQKQLRGDPNAFVDPGELARFVDASEAAFNKELARQQAAGPNR
[3]
  kcat/Km: 2.6 ×10⁵ /M/s

B4: THIN-B proetin (Janthinobacterium lividum), Q9AEF9 (protein)
chain: MTLLAKLMLATVATMSAATVQAKTPAPKPDTPVDCDSCKAWNGEVTPFNVFGNTWYVGTAGLSAVLVTSPQGHVLLDGALPQSAPLIIANIAALGFRIEDVKFILNSHAHWDHAGGIAALQAASGATVVASASGALGLQSGTNGKDDPQFQAKPVVHVAKVEKVKVVGEGDAIKLGPLNLTAHMTPGHTPGATTWTWTSCEGQRCLDVVYADSLNPYSSGDFTYTGKGDGPDISASFAASIAKVAALPCDIILSVHPDSTGVLDKAAKRSGEHNPFIDANACRAYAATADAMLTKRLAKERGVALPAAAPAAQHAH
[4]
  kcat/Km: 5 ×10⁶ /M/s

Source: ChEMBL document CHEMBL1275443, “Functional diversity among metallo-beta-lactamases: characterization of the CAR-1 enzyme of Erwinia carotovora” (2008)
